Measured values as given in US20220017471A1, “FUNCTIONALITY INDEPENDENT LABELING OF ORGANIC COMPOUNDS” (Shanghai Tech University, priority 2018, published 2022).

By UniProt entry, the sequences of proteins in these tests, tags left out.
UniProt P09874, whole entry: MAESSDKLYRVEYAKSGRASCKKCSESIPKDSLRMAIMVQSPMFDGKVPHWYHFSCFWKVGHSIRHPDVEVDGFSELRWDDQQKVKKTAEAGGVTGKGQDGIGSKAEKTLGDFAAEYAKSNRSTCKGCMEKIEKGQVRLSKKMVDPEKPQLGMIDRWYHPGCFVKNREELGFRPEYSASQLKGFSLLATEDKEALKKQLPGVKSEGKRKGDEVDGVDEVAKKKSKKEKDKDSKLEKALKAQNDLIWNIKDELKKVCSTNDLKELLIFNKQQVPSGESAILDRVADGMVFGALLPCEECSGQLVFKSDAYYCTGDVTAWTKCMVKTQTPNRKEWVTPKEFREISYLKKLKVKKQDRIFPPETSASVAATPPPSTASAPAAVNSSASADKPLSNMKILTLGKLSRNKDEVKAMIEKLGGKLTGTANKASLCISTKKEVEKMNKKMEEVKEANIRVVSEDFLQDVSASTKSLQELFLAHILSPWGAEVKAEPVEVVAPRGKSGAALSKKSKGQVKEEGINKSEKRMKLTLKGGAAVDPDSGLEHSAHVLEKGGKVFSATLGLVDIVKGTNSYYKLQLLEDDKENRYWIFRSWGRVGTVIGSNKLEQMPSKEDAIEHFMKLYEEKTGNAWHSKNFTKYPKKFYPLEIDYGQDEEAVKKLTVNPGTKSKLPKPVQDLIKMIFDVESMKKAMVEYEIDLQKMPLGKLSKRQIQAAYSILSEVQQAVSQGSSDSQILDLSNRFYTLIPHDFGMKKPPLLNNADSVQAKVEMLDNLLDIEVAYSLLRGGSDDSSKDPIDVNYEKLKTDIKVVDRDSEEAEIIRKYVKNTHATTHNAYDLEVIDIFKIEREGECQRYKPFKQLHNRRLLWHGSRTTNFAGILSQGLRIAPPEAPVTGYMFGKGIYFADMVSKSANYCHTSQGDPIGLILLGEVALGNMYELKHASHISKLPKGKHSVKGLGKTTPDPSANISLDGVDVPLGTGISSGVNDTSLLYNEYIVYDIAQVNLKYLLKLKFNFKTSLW

Experiments:
[1] = target: poly [ADP-ribose] polymerase 1 (PARP1) (Homo sapiens, UniProt P09874); test: nDEL affinity selection against PARP-1 (enrichment fold by deep sequencing); assay type: binding; conditions: ratio of normalized sequencing counts in presence and absence of target protein; DNA-encoded compound
human PARP1 = human PARP1 (Homo sapiens, UniProt P09874); test: PARP-1 autoribosylation based enzymatic assay (chemiluminescence); assay type: biochemical; conditions: read-out: PARP-1 inhibition IC50; auto-ribosylation assay, FIG. 22(b)

## O=C(Cc1cccc(O)c1)N1CCN(C(=O)c2cc(Cc3n[nH]c(=O)c4ccccc34)ccc2F)CC1
[1]
  Fold Change, enrichment folds for PARP-1 binder selection: 2.34
Human PARP1
  IC50: 2.5 nM
